Earlier results, collected in publication PMC2765576 (Bioconjugate chemistry, 2009).

Protein sequences, listed by entry. Tags and fused reporters are not part of them. Residues count along the entry.
UniProt P05106, 27-788: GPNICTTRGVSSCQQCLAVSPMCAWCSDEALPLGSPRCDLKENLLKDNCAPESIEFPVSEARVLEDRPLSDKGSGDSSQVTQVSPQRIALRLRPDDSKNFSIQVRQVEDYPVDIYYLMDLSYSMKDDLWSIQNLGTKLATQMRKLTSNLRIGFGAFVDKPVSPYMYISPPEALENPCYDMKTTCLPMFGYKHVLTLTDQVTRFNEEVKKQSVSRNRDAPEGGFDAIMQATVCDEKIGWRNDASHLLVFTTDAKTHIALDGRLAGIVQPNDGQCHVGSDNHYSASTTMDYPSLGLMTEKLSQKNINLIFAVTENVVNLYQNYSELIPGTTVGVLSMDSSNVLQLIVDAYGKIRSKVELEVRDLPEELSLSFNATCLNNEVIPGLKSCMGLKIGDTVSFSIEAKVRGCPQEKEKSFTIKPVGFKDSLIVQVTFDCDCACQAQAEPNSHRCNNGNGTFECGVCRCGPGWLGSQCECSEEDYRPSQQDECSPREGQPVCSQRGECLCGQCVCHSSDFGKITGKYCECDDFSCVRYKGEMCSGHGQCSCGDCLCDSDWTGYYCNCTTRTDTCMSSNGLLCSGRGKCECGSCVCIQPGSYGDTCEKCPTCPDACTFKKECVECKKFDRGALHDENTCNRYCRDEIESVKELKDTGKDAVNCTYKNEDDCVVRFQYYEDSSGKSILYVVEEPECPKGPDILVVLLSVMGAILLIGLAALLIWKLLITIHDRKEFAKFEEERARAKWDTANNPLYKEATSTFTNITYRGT
UniProt P06756, 891-1048 partner limits assumed: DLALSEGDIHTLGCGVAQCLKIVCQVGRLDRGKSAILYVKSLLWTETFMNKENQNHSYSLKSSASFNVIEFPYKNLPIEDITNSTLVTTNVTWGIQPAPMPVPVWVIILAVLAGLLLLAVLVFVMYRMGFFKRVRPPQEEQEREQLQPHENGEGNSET
UniProt P06756, 31-889 limits assumed: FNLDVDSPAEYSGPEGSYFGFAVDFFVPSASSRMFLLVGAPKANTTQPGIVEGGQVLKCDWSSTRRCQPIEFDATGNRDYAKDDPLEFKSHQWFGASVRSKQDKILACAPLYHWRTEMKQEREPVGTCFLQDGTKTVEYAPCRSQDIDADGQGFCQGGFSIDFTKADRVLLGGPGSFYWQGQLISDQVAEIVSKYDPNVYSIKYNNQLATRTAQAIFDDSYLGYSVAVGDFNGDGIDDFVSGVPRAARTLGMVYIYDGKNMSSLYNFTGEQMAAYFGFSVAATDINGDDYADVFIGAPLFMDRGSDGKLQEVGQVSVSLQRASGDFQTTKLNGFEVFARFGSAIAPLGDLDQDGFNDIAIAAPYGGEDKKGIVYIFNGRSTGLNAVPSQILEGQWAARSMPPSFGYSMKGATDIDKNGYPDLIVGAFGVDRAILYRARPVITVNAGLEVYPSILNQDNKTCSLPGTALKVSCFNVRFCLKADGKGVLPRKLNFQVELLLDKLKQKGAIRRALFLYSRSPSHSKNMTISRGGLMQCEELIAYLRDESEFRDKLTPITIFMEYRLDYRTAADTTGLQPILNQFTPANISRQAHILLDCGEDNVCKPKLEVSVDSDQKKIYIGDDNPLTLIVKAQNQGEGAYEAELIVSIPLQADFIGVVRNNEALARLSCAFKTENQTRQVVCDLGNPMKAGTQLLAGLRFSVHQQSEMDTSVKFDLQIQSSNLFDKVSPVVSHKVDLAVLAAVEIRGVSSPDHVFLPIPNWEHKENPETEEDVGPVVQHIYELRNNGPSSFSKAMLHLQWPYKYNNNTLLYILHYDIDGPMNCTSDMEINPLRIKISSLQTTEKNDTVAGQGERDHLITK

Molecular target: integrin αvβ3 (Homo sapiens, UniProt P05106+P06756)
Settings: corresponding literature value for unlabeled cyclic peptide; ref [12]

IC50: 230 nM
Substance: cyclo(RGD^DYK): unlabeled cyclic RGD peptide, IC50 quoted from ref 12
